# In PubChem BioAssay AID1347041 (National Center for Advancing Translational Sciences (NCATS), 2019):
# The entries are a selection whose mix differs from that of the whole data set. Calls of active or inactive are those of the source. Rule as the data show it: active = activity change below about -30%; inconclusive = mostly about -25% to -30%; inactive = weaker than that.
# Molecular target: L-lactate dehydrogenase A chain (Homo sapiens) (UniProt P00338)
# Test: qHTS assay for inhibitors of human lactate dehydrogenase;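 also: values are at about 110 or 230 µM; plate controls were DMSO wells for no effect and wells without enzyme for full effect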
# Conditions: purified LDHA, NADH/diaphorase-resazurin fluorescence; hits give low values
# Text: LDH is a key glycolytic enzyme that catalyzes the final step in the glycolytic pathway, reducing pyruvate to lactate and regenerating NAD+ equivalents necessary for continued glycolysis. LDHA has been linked to the carcinogenesis and malignancy in numerous forms of cancers and many other diseases. Consequently, both pharma and academia have invested in significant research efforts to identify small molecule therapeutics. Such attempts have been stalled or abandoned due to limited success in discovering potent and drug-like inhibitors that can be utilized to validate LDHA in vivo as a drug target, a necessary step toward advancing such a molecule towards the clinic Towards this goal we designed and performed a quantitative high-throughput screening (qHTS) campaign to discover novel compounds that are potent inhibitors of LDHA enzyme activity and cancer cell line growth.
# The assay was optimized to 1536-well plates. Briefly, 3 µL of human lactate dehydrogenase 5 (#A38558H, Meridian Life Science, Inc., Memphis, TN) in LDH assay buffer (200 mM Tris HCl pH 7.4, 100 microM EDTA and 0.01% Tween-20) was added to a black solid bottom 1536-well assay plate (Greiner Bio-One) using a BioRAPTR FRD dispenser (Beckman Coulter, Brea, CA). A 1536-well pintool dispenser outfitted with 20 nL pins (Wako Automation, San Diego, CA) was used to transfer 23 nL of DMSO-solubilized compound (both library and vehicle controls) to each 1536-well assay plate. Following compound transfer, 1 µL of substrate solution containing NADH and sodium pyruvate (Sigma-Aldrich, St. Louis, MO) in LDH assay buffer was dispensed via BioRAPTR FRD to initiate the reaction. Final concentrations in the 4 microL reaction volume were 2 nM LDHA enzyme, 0.06 mM NADH and 0.2 mM sodium pyruvate. Following a 5 minute incubation period at room temperature, 1 µL of detection reagent (C. kluyveri diaphorase (Sigma-Aldrich) and resazurin sodium salt (Sigma-Aldrich) in LDH assay buffer) was added to a total volume of 5 µL. Final concentrations of detection reagents were 0.133 mg/mL diaphorase and 37 µM resazurin. Plates were immediately transferred to a ViewLux microplate imager (PerkinElmer, Waltham, MA), and any resulting resorufin fluorescence was measured (ex540, em590 nm) at 0 and 20 minutes. Fluorescence was normalized using enzyme-free and DMSO-treated control wells on each plate.
row,Compound,activity change
1,O=c1[nH]c2ccccc2n1C1CCN(C(c2cccc3ccccc23)c2nnnn2C2CCCC2)CC1 (stereo unspecified),inactive: -6.15%
2,Cc1ccc(C(C)CCN(CCCl)CCCl)cc1 (stereo unspecified),inactive: -4.77%
3,O=C(NCC1(N2CCCCC2)CCCCC1)c1c[nH]c2ccccc12,inactive: 19.9%
4,CCOC(=O)N1CCC(Nc2cccc(C)c2)CC1,inactive: 1.38%
5,COc1cc(C(=O)NCC2(N(C)C)CCCCC2)ccc1OC(F)F,inactive: -7.92%
6,O=c1[nH]c2ccccc2n1C1CCN(C(c2ccccc2)c2nnnn2C2CCCCC2)CC1 (stereo unspecified),inactive: -7.64%
7,CCCOc1ccccc1C(=O)NCC1(N2CCOCC2)CCCCC1,inactive: 10.9%
8,COc1ccc(NC2CCN(CCc3ccccc3)CC2)c(OC)c1,inactive: 22.6%
9,CCOC(=O)N1CCC(Nc2ccc(F)cc2)CC1,inactive: 0.796%
10,CCCCn1nnnc1C(c1cc2ccccc2o1)N1CCC(n2c(=O)[nH]c3ccccc32)CC1 (stereo unspecified),inactive: -0.105%
11,O=P1(N(CCCl)CCCl)SCCCS1,inactive: -5.74%
12,CCCCOc1ccc(C(=O)NCC2(N3CCOCC3)CCCCC2)cc1,inactive: -8.1%
13,O=C(NCC1(N2CCCCC2)CCCCC1)c1ccc(F)cc1,inactive: -4.36%
14,COc1ccccc1C(=O)NCC1(N2CCOCC2)CCCCC1,inactive: -2.49%
15,CN(C)C1(CNC(=O)c2nn(C)c(=O)c3ccccc23)CCCCC1,inactive: -18.6%
16,CCOc1ccc(C)cc1CN(CCCl)CCCl,inactive: -3.37%
17,O=C1CCN(Cc2ccccc2)CC1,inactive: -1.52%
18,O=C(NCC1(N2CCOCC2)CCCCC1)c1ccc(Cl)cc1,inactive: 4.18%
19,CC(C)(C)n1nnnc1C(c1ccccc1)N1CCC(n2c(=O)[nH]c3ccccc32)CC1 (stereo unspecified),inactive: 3.04%
20,CCCCn1nnnc1C(c1ccc(OC)cc1)N1CCC(n2c(=O)[nH]c3ccccc32)CC1 (stereo unspecified),inactive: -1.8%
21,CCOC(=O)N1CCC(Nc2ccc(OC)cc2)CC1,inactive: 7.05%
22,COc1ccc(Cl)cc1C(=O)NCC1(N2CCOCC2)CCCCC1,inactive: -8.95%
23,Fc1ccc(CN2CCC(Nc3ccccc3Cl)CC2)cc1,inactive: 4.47%

row,Compound,activity change
1,O=C1C(O)=C([N+](=O)[O-])C(=O)C(O)=C1[N+](=O)[O-],inactive: 3.92%
2,O=C(NCC1(N2CCCCC2)CCCCC1)c1ccc(Cl)s1,inactive: 3.8%
3,N#CC1(Nc2ccccc2)CCN(Cc2ccccc2)CC1,inactive: -2.93%
4,O=C(OC1CN2CCC1CC2)C1c2ccccc2Oc2ccccc21 (stereo unspecified),inactive: 17.1%
5,CC1CN(CCc2ccccc2)CCC1=O (stereo unspecified),inactive: -1.11%
6,O=c1[nH]c2ccccc2n1C1CCN(C(c2cc3ccccc3o2)c2nnnn2C2CCCCC2)CC1 (stereo unspecified),inactive: -8.45%
7,O=C(NCC1(N2CCOCC2)CCCCC1)c1cc2ccccc2o1,inactive: -1.46%
8,Cc1cc(C)cc(N(C(=O)c2ccccc2)C2CCN(C(=O)OC(C)(C)C)CC2)c1,inactive: -0.888%
9,O=C(NCC1(N2CCCCC2)CCCCC1)c1ccc(Cl)nc1,inactive: -0.514%
10,O=c1[nH]c2ccccc2n1C1CCN(C(c2ccccc2OC(F)(F)F)c2nnnn2C2CCCCC2)CC1 (stereo unspecified),inactive: -2.43%
11,Cc1cccc(NC2(C#N)CCN(Cc3ccccc3)CC2)c1,inactive: -0.769%
12,CSc1ccccc1C(=O)NCC1(N2CCCCC2)CCCCC1,inactive: -14.4%
13,O=C(NCC1(N2CCCCC2)CCCCC1)c1cccs1,inactive: -1.41%
14,CCCCn1nnnc1C(CC)N1CCC(n2c(=O)[nH]c3ccccc32)CC1 (stereo unspecified),inactive: -7.6%
15,CCCCn1nnnc1C(c1cccs1)N1CCC(n2c(=O)[nH]c3ccccc32)CC1 (stereo unspecified),inactive: -3.53%
16,O=C(NCC1(N2CCCCC2)CCCCC1)c1ccc(=O)[nH]c1,inactive: -0.713%
17,CC(C)(C)OC(=O)N1CCC(N(C(=O)c2ccccc2)c2ccc(F)cc2)CC1,inactive: -4.15%
18,COc1ccc(C(=O)NCC2(N3CCCCC3)CCCCC2)c(OC)c1OC,inactive: -4.13%
19,CCC(c1nnnn1C1CCCC1)N1CCC(n2c(=O)[nH]c3ccccc32)CC1 (stereo unspecified),inactive: -5.2%
20,COc1ccc(C(=O)NCC2(N3CCCCC3)CCCCC2)cc1,inactive: -7.21%
21,O=C(NCC1(N2CCOCC2)CCCCC1)c1ccccc1Br,inactive: -6.61%
22,CCCOc1ccc(C(=O)NCC2(N(C)C)CCCCC2)cc1OC,inactive: -6.75%
23,CCCCOc1ccccc1C(=O)NCC1(N2CCOCC2)CCCCC1,inactive: 4.2%
